Experimental data from patent US12472261B2, “Conjugated inhibitors of DNA damage response” (ProLynx LLC, priority 2019, dated 2025).

Details: buffer, 37° C., after one week

With “MeO-PEG20kDa-DBCO triazole of 6-azidohexyl N-(2-methoxyethyl)-N-(methylene-olaparib) carbamate” the free olaparib observed was “no free olaparib was observed”.
